Measured values published in patent US9314474B2, “Formulations of 14-epi-analogues of vitamin D” (HYBRIGENICS, SA, priority 2010, dated 2016).

Settings: cynomolgus monkey, in vivo, po
Procedure: Male cynomolgus monkey received a single oral administration of a high dose of inecalcitol (2 mg/kg) in the same volume (5 ml/kg) for each excipient. Blood samples were drawn at the time of administration (To) and 15, 30, 45, 60, 90 minutes, 3, 6, 9 and 24 hours later. Plasma aliquots were prepared on heparinized tubes and unchanged inecalcitol was specifically assayed by HPLC/MS/MS method.

Q: For Olive oil, which “absorption of inecalcitol compared with MCT (in words)” value is on record?
A: better absorbed

Q: What about the “AUC0-24 h (%)” value (2 mg/kg) of the same substance?
A: 127%

Q: And the “Cmax (−fold)” value (2 mg/kg)?
A: 4.3 fold

Q: And the “Tmax” value (2 mg/kg)?
A: 1 h
